Test results taken from ChEMBL document CHEMBL1124469, “Synthesis and dopaminergic activity of 2-substituted octahydrobenzo[f]quinolines” (J Med Chem, 1989).

By UniProt entry, the sequences of proteins in these tests, tags left out.
UniProt P20288, whole entry: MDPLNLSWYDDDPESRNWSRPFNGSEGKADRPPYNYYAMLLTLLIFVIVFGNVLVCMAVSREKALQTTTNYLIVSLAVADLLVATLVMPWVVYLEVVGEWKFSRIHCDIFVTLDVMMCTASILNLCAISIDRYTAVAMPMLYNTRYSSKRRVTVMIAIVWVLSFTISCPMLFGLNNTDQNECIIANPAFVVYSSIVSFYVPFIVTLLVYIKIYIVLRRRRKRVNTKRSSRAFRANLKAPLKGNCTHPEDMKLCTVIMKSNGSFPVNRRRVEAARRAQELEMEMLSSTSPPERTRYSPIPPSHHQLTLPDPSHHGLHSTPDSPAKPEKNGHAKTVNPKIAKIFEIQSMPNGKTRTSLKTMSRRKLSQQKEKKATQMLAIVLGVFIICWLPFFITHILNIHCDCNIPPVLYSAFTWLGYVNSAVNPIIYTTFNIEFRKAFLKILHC

Assays:
D(2) dopamine receptor [1] = target: T1, D(2) dopamine receptor (Bos taurus, UniProt P20288); experiment: High binding affinity for dopamine D-2 receptor from bovine anterior pituitary membrane, using radioligand [3H]spiroperidol
D(2) dopamine receptor [2] = target: T1, D(2) dopamine receptor; experiment: Low binding affinity for dopamine D-2 receptor from bovine anterior pituitary membrane, using radioligand [3H]spiroperidol

What does the source list for CCCN1C[C@H](CSC)C[C@@H]2c3cc(O)c(O)cc3CC[C@H]21?
Ki (D(2) dopamine receptor [1]): 2 nM; Ki (D(2) dopamine receptor [2]): 110 nM
